Experiment [1] addresses Delta-type opioid receptor (Rattus norvegicus, UniProt P33533). Description: Binding affinity at opioid receptor delta 1 by displacement of [3H]DADLE in rat brain membrane. Background: Displacement assays read how much labelled ligand stays bound in the presence of the test substance.
The next experiment deals with Mu-type opioid receptor (Rattus norvegicus, UniProt P33535).
The target of experiment [2] is Kappa-type opioid receptor (Cavia porcellus, UniProt P41144).

Sequences of proteins named here, by UniProt entry; tags and fusion partners are left off. A change or cut given only in a name is not applied to a line headed by its entry.
UniProt P33533, whole entry, looked up: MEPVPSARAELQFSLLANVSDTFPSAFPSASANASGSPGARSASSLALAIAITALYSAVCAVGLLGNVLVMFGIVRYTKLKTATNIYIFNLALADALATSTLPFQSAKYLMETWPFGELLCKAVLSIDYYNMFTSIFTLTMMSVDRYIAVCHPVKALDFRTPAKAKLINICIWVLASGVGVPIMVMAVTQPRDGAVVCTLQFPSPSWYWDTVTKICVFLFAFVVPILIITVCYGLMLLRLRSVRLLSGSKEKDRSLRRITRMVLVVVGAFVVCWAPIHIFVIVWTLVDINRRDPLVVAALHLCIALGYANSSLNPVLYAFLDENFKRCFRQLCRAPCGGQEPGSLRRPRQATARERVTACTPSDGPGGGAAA
UniProt P33535, whole entry, looked up: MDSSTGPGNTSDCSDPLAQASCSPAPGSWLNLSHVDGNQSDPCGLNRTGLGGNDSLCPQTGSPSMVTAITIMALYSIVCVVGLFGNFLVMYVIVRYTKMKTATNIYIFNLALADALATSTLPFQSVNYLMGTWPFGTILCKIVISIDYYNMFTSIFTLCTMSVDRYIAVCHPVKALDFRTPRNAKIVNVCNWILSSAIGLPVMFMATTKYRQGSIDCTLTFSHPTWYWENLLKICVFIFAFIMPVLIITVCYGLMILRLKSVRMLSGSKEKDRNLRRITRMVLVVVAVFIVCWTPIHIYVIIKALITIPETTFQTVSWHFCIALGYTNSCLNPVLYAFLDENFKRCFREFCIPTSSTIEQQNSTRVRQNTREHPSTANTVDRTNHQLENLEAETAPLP
UniProt P41144: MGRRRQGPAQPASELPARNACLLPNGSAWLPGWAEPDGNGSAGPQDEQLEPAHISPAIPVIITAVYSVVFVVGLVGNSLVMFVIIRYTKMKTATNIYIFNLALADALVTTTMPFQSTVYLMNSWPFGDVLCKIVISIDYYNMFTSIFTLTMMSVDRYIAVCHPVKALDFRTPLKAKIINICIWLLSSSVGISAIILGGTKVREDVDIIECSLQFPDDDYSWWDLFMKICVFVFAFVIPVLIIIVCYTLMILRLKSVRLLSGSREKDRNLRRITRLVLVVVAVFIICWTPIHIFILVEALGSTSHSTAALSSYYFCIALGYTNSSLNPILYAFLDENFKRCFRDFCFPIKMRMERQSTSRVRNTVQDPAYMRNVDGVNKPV

Take `CN(C(=O)Cc1ccccc1)[C@H]1CC[C@@]2(CCCO2)C[C@@H]1N1CCCC1`: the Ki (as a rule, the equilibrium dissociation constant of an inhibitor or competing ligand from its target) in experiment [1] was greater than 5 µM; at Mu-type opioid receptor, 7.25 µM; in experiment [2] it was 0.0048 µM.

The record behind these values is ChEMBL document CHEMBL1149096 (J Med Chem, 2004).
